These results are taken from patent US8022040B2, “Hydroxyapatite-binding peptides for bone growth and inhibition” (The Regents of the University of California, priority 2004, dated 2011).

For this data set the following is noted: pure water.

On to APYHPTIPASVH-GGGK-biotin [peptide 5], for which the solubility result is given as “low solubility”. Turning to NPYAPTIPQSVA-GGGK-biotin [peptide 4], the solubility result was “low solubility”.

As for NPYHPTIPQSVH-GGGK-biotin [peptide 3], the solubility result is listed as “low solubility”.
